{"source": "paper PMC12079163", "about": "(Drug Development Research, 2025)", "test": "Solubility under the assay conditions", "format": "physicochemical", "conditions": "HDAC, BCL‐2 and cell assays; data not reliable, not reported", "description": "With these promising results in hand, we elected to expand our library of dual BCL‐2/HDAC inhibitors. […] Alongside this study, we attempted to enhance the HDAC1 inhibitory activity of BD‐4‐213 through targeting the enzyme's foot‐pocket (Melesina et al. [2021]; Moradei et al. [2007]). We proposed to do this by grafting on a thiophene (AMC‐4‐074) or a phenyl ring (AMC‐4‐075) to the aniline ring of the ortho‐aminoanilide of BD‐4‐213, as guided by the ZBG in compound 2 (Figure 1A).", "note": "“Also recorded” adds a separate entry of the source.", "data": [{"substance": "2‐((1H‐pyrrolo[2,3‐b]pyridin‐5‐yl)oxy)‐N‐((4‐((4‐((3‐amino‐[1,1′‐biphenyl]‐4‐yl)carbamoyl)benzyl)amino)‐3‐nitrophenyl)sulfonyl)‐4‐(4‐((4′‐chloro‐5,5‐dimethyl‐3,4,5,6‐tetrahydro‐[1,1′‐biphenyl]‐2‐yl)methyl)piperazin‐1‐yl)benzamide [AMC‐4‐075]", "values": [{"measurement": "solubility under the assay conditions", "result": "solubility proved problematic; also recorded: Limited solubility"}]}]}
